## Ab-95 light chain CDR variants: yeast mating affinities

The measurements come from Engelhart et al. 2022 (doi:10.1038/s41597-022-01779-4) through the FLAb antibody collection.

Target peptide (SARS-CoV-2 spike, HR2 region): PDVDLGDISGINAS

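The parent was found by panning a naive human phage display library on the peptide. In library AAYL52, one, two or three CDR residues were substituted; doubles and triples were drawn at random. AlphaSeq pools MATa yeast showing the antibodies with MATalpha yeast showing the peptide. After mating in shaken culture at 30 °C for 16 h, diploids were selected and their barcode pairs sequenced. Scores were corrected for input abundance and mapped to Kd with protein pairs of known affinity run in the same pool. Mating was done three times.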

Each scFv is VH, a 15-residue (Gly4Ser)3 linker, VL, as in the parent Ab-95, and differs from it in the CDRs of the light chain only.
VH: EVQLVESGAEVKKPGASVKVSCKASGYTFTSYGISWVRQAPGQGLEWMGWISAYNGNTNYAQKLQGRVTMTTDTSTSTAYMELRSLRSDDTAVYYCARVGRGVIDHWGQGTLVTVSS
VL: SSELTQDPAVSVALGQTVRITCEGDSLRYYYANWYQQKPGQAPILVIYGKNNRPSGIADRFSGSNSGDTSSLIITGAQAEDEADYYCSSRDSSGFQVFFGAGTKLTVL

The parent's light chain CDRs are EGDSLRYYYAN, GKNNRPS, SSRDSSGFQVF; each variant's own CDRs replace them letter for letter. Every variant below is changed at N33 of the VL (sequential numbering). Scale: log10 of Kd in nM, estimated from mating counts; low values are strong binders. The mean shown is taken over the replicates in which the pair was detected. An entry "nd" has no value in the source: the pair was not observed among the diploids in any replicate. This suggests poor binding but is not conclusive.

For EGDSLAYYYAL, GKNNRPS, SSRDSSGFQVF, the assay gave 4.36 (3 of 3 replicates; controls 3 of 9).
For EGDILRYYYAK, GKNNRPS, SSRDSSGFQVF, the assay gave 1.99 (3 of 3 replicates; controls 1 of 9).
For EGDSLLYYYAK, GKNNRPS, SIRDSSGFQVF, the assay gave 2.08 (3 of 3 replicates; controls 3 of 9).
For EGDSHRYYYGW, GKNNRPS, SSRDSSGFQVF, the assay gave 5.56 (1 of 3 replicates; controls 4 of 9).
For EGDSLRGYYAC, GKNNRPS, ESRDSSGFQVF, the assay gave nd (0 of 3 replicates; controls 0 of 9).
For EGDSLRYYLAY, GKNNRPR, SSRDSSGFQVF, the assay gave 3.79 (2 of 3 replicates; controls 4 of 9).
For EGDSLRYYYAT, GKNNRPS, SSRDSSGFFVG, the assay gave 3.75 (1 of 3 replicates; controls 1 of 9).
For EGDSLRYYKAH, GKNNRPS, SSHDSSGFQVF, the assay gave 5.66 (1 of 3 replicates; controls 1 of 9).
For EGDSLRYYYAE, GFNNRPS, SSRDSSWFQVF, the assay gave 4.11 (2 of 3 replicates; controls 1 of 9).
For EGVSLRYYYAL, YKNNRPS, SSRDSSGFQVF, the assay gave nd (0 of 3 replicates; controls 1 of 9).
For EGDSARYYYAA, GKNNRPS, SFRDSSGFQVF, the assay gave nd (0 of 3 replicates; controls 0 of 9).
For HGDSLRYYYQS, GKNNRPS, SSRDSSGFQVF, the assay gave nd (0 of 3 replicates; controls 1 of 9).
For EGDSLREYYAI, GKNNCPS, SSRDSSGFQVF, the assay gave 5.00 (1 of 3 replicates; controls 5 of 9).
For EGDSLRYYYAI, GKNNRPS, SSRDSSGFQVF, the assay gave nd (0 of 3 replicates; controls 6 of 9).
For RGDSLRDYYAY, GKNNRPS, SSRDSSGFQVF, the assay gave 4.35 (3 of 3 replicates; controls 7 of 9).
For EGDSLRYYCAP, GKNNRPS, SSRLSSGFQVF, the assay gave 4.36 (1 of 3 replicates; controls 3 of 9).
For EGDSLRYYYAY, GGNNRPY, SSRDSSGFQVF, the assay gave 4.33 (3 of 3 replicates; controls 2 of 9).
For EGDSLRYYYAW, GKNNRPS, SSRDSSGQNVF, the assay gave 4.00 (1 of 3 replicates; controls 0 of 9).
For EGDSLRYYYAW, GKNNAPS, SSRDSSFFQVF, the assay gave 3.91 (1 of 3 replicates; controls 0 of 9).
For EGDSLRYYYAL, GKNNRPS, SSSDSSGFQLF, the assay gave 5.44 (1 of 3 replicates; controls 4 of 9).
For EGDSLRYYYAM, GKNHRPS, SSRDSSGCQVF, the assay gave 4.33 (2 of 3 replicates; controls 1 of 9).
For EGDSMRYYYAV, GKINRPS, SSRDSSGFQVF, the assay gave 1.91 (3 of 3 replicates; controls 3 of 9).
For EGDSLRYYYDK, GKNNRPS, SSRDSSGFQIF, the assay gave 4.97 (1 of 3 replicates; controls 0 of 9).
For EGDSLRYYHAE, GKNNRDS, SSRDSSGFQVF, the assay gave 3.79 (1 of 3 replicates; controls 1 of 9).
For EWDSLRYYYAR, GKCNRPS, SSRDSSGFQVF, the assay gave 4.79 (1 of 3 replicates; controls 0 of 9).
For EGDSLRYYMAC, GKNNRPS, SSRDSSGFQVF, the assay gave 3.84 (2 of 3 replicates; controls 3 of 9).
For EGDSLRYTYAV, GKNERPS, SSRDSSGFQVF, the assay gave 3.36 (2 of 3 replicates; controls 3 of 9).
For EGDSLRYYYAC, GKFNRPS, SSRDSSGFQVH, the assay gave 3.83 (1 of 3 replicates; controls 1 of 9).
For EGDSLRYYYAQ, GKNVRPS, SSRDSSGCQVF, the assay gave nd (0 of 3 replicates; controls 0 of 9).
For EGDSLSYYYAY, GKNNRPS, SSRDSSGFQDF, the assay gave 3.78 (1 of 3 replicates; controls 2 of 9).

From the list, the first 2 with no signal in any replicate:

With EGDSLRGYYAC, GKNNRPS, ESRDSSGFQVF the result was nd (0 of 3 replicates; controls 0 of 9).
With EGVSLRYYYAL, YKNNRPS, SSRDSSGFQVF the result was nd (0 of 3 replicates; controls 1 of 9).

For reference, the parent read 2.31 as the reference entry and 2.25 as a member of this library. Empty control strains, which show no peptide, gave a signal in 28% of pairings with library AAYL52; the median was 3.91 and 95% of these signals were weaker than 2.90. No background was subtracted. Also given: how often the same scFv was detected with the empty control strains.